The results in this text go back to ChEMBL document CHEMBL5705888, “Substrate specificity and inhibitors of LRRK2, a protein kinase mutated in Parkinson's disease” (Biochem J, 2009).

The chains behind the UniProt entries cited, without tags or fusion partners. Where a name states a change or a piece, a line headed by the entry shows the natural chain unless it says otherwise.
UniProt O75116: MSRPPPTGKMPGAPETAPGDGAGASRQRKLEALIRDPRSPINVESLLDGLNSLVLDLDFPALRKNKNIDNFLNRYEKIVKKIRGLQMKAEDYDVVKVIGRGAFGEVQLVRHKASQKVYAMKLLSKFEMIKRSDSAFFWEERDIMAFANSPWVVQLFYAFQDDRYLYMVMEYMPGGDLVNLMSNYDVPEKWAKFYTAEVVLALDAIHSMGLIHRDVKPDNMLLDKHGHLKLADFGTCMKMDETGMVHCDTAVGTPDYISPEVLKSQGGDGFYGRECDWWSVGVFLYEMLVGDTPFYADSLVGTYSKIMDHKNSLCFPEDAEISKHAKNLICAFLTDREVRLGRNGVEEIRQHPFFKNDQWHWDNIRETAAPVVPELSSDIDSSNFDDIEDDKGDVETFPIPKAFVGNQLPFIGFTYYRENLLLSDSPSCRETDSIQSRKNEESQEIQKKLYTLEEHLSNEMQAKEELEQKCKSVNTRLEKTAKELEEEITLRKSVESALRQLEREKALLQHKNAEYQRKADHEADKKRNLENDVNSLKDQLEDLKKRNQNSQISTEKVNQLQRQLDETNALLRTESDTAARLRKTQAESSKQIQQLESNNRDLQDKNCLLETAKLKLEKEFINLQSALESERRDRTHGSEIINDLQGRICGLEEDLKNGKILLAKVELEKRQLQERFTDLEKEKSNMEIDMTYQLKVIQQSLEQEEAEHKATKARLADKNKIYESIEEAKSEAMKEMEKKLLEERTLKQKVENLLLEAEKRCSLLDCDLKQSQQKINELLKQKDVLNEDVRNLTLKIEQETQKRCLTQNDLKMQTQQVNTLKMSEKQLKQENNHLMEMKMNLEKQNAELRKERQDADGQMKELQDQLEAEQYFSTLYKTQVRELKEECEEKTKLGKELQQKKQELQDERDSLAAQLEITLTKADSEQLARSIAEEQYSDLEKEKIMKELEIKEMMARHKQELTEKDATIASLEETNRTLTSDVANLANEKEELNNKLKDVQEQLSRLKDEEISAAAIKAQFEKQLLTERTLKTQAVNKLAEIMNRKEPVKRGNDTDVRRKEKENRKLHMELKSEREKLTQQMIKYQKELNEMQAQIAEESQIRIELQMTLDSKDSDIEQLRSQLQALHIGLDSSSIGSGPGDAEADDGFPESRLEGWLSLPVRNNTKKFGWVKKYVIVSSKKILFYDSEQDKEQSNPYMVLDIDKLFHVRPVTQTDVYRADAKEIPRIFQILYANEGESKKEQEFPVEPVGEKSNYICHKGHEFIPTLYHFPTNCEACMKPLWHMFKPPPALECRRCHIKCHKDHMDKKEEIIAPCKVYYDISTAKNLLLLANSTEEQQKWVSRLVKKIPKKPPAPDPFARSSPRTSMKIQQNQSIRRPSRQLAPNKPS

This test concerns the target Rho-associated protein kinase 2 (Homo sapiens, UniProt O75116). Kind of test: Inhibition of ROCK2 (unknown origin) assessed as fold change at 1 uM incubated for 30 mins in presence of [gamma-33P]ATP by multidrop micro reagent based assay relative to control.

Consider `CC1=C(C(=O)Nc2cc3cn[nH]c3cc2F)C(c2ccc(C(F)(F)F)cc2)CC(=O)N1` (stereo unspecified), for which the fold change (FC) amounted to 20.
